The assay concerns the target Histone-lysine N-methyltransferase EZH2 (Homo sapiens, UniProt Q15910). Kind of assay: Potency index, ratio of EPZ-6438 IC50 to compound IC50 for EZH2 inhibition in human Pfeiffer cells. It is filed as cell-based.

Protein sequences, listed by entry. Tags and fused reporters are not part of them.
UniProt Q15910, whole entry, looked up: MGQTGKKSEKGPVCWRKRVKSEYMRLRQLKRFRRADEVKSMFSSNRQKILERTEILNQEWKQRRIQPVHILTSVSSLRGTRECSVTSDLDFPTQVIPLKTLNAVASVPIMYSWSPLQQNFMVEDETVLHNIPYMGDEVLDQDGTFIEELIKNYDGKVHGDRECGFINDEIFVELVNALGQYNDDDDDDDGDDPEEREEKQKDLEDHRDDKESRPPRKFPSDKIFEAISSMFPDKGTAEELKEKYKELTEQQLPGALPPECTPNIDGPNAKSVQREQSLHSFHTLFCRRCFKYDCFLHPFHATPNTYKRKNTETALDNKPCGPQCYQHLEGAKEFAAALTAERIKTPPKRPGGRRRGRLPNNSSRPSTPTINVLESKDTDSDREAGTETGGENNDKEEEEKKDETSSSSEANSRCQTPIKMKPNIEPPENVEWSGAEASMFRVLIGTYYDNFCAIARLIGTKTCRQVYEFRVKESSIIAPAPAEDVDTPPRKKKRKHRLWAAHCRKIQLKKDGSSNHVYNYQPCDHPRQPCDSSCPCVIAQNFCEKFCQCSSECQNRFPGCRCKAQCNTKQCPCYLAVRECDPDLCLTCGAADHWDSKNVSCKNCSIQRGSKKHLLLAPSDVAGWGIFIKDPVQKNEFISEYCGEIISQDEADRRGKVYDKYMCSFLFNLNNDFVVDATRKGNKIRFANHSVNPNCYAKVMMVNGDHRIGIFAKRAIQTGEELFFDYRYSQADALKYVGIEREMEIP

As for `CCc1c(N(CC)C2CCOCC2)cc2oc(C3CCN(C(C)C)CC3)cc2c1C(=O)NCc1c(C)cc(C)[nH]c1=O`, the Ratio IC50 is 3.

The values are drawn from ChEMBL document CHEMBL4138300 (ACS Med Chem Lett, 2018).
